This is a selection: effects in other tests are not listed, and their absence says nothing.

The series is described as follows: In vitro fentanyl permeation (flux) through human cadaver skin, flow-through permeation cell at 32° C. As to conditions: 32 deg. C.

Regarding `CCC(=O)N(c1ccccc1)C1CCN(CCc2ccccc2)CC1`, the fentanyl flux rate entry was “about 5 μg/cm^2hr” (same type of patch system with less than a fentanyl flux rate lowering effective amount of plasticizer (FIG. 5, curve 530)); “about 16 μg/cm^2hr” (same type of patch system with more than a fentanyl flux rate lowering effective amount of plasticizer (FIG. 4, 440)); “about 3 μg/cm^2hr” (transdermal delivery patch with a fentanyl flux rate lowering effective plasticizer loading (FIG. 5, curve 540)).

Source of the values: patent US7247315B2.
